Source: PubChem BioAssay (NCI)
Some of these compounds have results that are not shown, active ones among them.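 Each compound was tested at five concentrations against cells in 96-well plates for 48 hours. GI50 marks 50% less growth. TGI is the concentration that stops growth completely.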

Columns and labels:
Assay in all cases: NCI-60 cell line screen, 48 h
[1] = test system: BT-549 breast
[2] = test system: UACC-257 melanoma
[3] = test system: EKVX NSCLC
[4] = test system: RXF 393 renal
[5] = test system: U251 CNS
[6] = test system: HOP-62 NSCLC
[7] = test system: HT29 colon
[8] = test system: DU-145 prostate
[9] = test system: SK-OV-3 ovarian
[10] = test system: OVCAR-3 ovarian
[11] = test system: MDA-N
[12] = test system: UO-31 renal
[13] = test system: T-47D breast
[14] = test system: SK-MEL-28 melanoma
[15] = test system: PC-3 prostate
[16] = test system: ACHN renal
[17] = test system: A498 renal
[18] = test system: M14 melanoma
[19] = test system: LOX IMVI melanoma
[20] = test system: SNB-75 CNS
[21] = test system: SK-MEL-2 melanoma
[22] = test system: SK-MEL-5 melanoma
[23] = test system: NCI-H522 lung
[24] = test system: IGROV1 ovarian
[25] = test system: RPMI-8226 leukemia
[26] = test system: HCT-116 colon
[27] = test system: KM12 colon
[28] = test system: MOLT-4 leukemia
[29] = test system: HS 578T breast
[30] = test system: SR leukemia
[31] = test system: TK-10 renal
[32] = test system: SN12C renal
[33] = test system: HL-60(TB) leukemia
[34] = test system: SW-620 colon
[35] = test system: HCC-2998 colon
[36] = test system: NCI-H23 lung
[37] = test system: SF-295 CNS
[38] = test system: NCI-H226 lung
[39] = test system: UACC-62 melanoma
[40] = test system: CCRF-CEM leukemia
[41] = test system: MALME-3M melanoma
[42] = test system: MDA-MB-231 breast
[43] = test system: COLO 205 colon
[44] = test system: MDA-MB-435
[45] = test system: SNB-19 CNS
[46] = test system: HOP-92 NSCLC
[47] = test system: OVCAR-4 ovarian
[48] = test system: 786-0 renal
[49] = test system: K-562 leukemia
[50] = test system: A549 NSCLC
[51] = test system: CAKI-1 renal
[52] = test system: OVCAR-8 ovarian
[53] = test system: OVCAR-5 ovarian
[54] = test system: NCI-H460 lung
[55] = test system: HCT-15 colon
[56] = test system: MCF7 breast
[57] = test system: SF-268 CNS
[58] = test system: SF-539 CNS
[59] = test system: NCI/ADR-RES ovarian

SMILES: C/C=C\C(O)(C(=O)O[C@@H]1C2CCN(CC2)[C@@H]1C)C1CCCC1 (stereo partly drawn)
- GI50 [1]: > 100 µM
- TGI [1]: > 100 µM
- GI50 [2]: > 100 µM
- TGI [2]: > 100 µM
- GI50 [3]: > 100 µM
- TGI [3]: > 100 µM
- GI50 [4]: > 100 µM
- TGI [4]: > 100 µM
- GI50 [5]: > 100 µM
- TGI [5]: > 100 µM
- GI50 [6]: > 100 µM
- TGI [6]: > 100 µM
- GI50 [7]: > 100 µM
- TGI [7]: > 100 µM
- GI50 [8]: > 100 µM
- TGI [8]: > 100 µM
- GI50 [9]: > 100 µM
- TGI [9]: > 100 µM
- GI50 [10]: > 100 µM
- TGI [10]: > 100 µM
- GI50 [11]: > 100 µM
- TGI [11]: > 100 µM
- GI50 [12]: 97.5 µM
- TGI [12]: > 100 µM
- GI50 [13]: > 100 µM
- TGI [13]: > 100 µM
- GI50 [14]: > 100 µM
- TGI [14]: > 100 µM
- GI50 [15]: > 100 µM
- TGI [15]: > 100 µM
- GI50 [16]: > 100 µM
- TGI [16]: > 100 µM
- GI50 [17]: > 100 µM
- TGI [17]: > 100 µM
- GI50 [18]: > 100 µM
- TGI [18]: > 100 µM
- GI50 [19]: > 100 µM
- TGI [19]: > 100 µM
- GI50 [20]: > 100 µM
- TGI [20]: > 100 µM
- GI50 [21]: > 100 µM
- TGI [21]: > 100 µM
- GI50 [22]: > 100 µM
- TGI [22]: > 100 µM
- GI50 [23]: > 100 µM
- TGI [23]: > 100 µM
- GI50 [24]: > 100 µM
- TGI [24]: > 100 µM
- GI50 [25]: > 100 µM
- TGI [25]: > 100 µM
- GI50 [26]: > 100 µM
- TGI [26]: > 100 µM
- GI50 [27]: > 100 µM
- TGI [27]: > 100 µM
- GI50 [28]: > 100 µM
- TGI [28]: > 100 µM
- GI50 [29]: 13.5 µM
- TGI [29]: > 100 µM
- GI50 [30]: > 100 µM
- TGI [30]: > 100 µM
- GI50 [31]: > 100 µM
- TGI [31]: > 100 µM
- GI50 [32]: > 100 µM
- TGI [32]: > 100 µM
- GI50 [33]: > 100 µM
- TGI [33]: > 100 µM
- GI50 [34]: > 100 µM
- TGI [34]: > 100 µM
- GI50 [35]: > 100 µM
- TGI [35]: > 100 µM
- GI50 [36]: > 100 µM
- TGI [36]: > 100 µM
- GI50 [37]: > 100 µM
- TGI [37]: > 100 µM
- GI50 [38]: > 100 µM
- TGI [38]: > 100 µM
- GI50 [39]: > 100 µM
- TGI [39]: > 100 µM
- GI50 [40]: > 100 µM
- TGI [40]: > 100 µM
- GI50 [41]: > 100 µM
- TGI [41]: > 100 µM
- GI50 [42]: > 100 µM
- TGI [42]: > 100 µM
- GI50 [43]: > 100 µM
- TGI [43]: > 100 µM
- GI50 [44]: > 100 µM
- TGI [44]: > 100 µM
- GI50 [45]: > 100 µM
- TGI [45]: > 100 µM
- GI50 [46]: > 100 µM
- TGI [46]: > 100 µM
- GI50 [47]: > 100 µM
- TGI [47]: > 100 µM
- GI50 [48]: > 100 µM
- TGI [48]: > 100 µM
- GI50 [49]: > 100 µM
- TGI [49]: > 100 µM
- GI50 [50]: > 100 µM
- TGI [50]: > 100 µM
- GI50 [51]: > 100 µM
- TGI [51]: > 100 µM
- GI50 [52]: > 100 µM
- TGI [52]: > 100 µM
- GI50 [53]: > 100 µM
- TGI [53]: > 100 µM
- GI50 [54]: > 100 µM
- TGI [54]: > 100 µM
- GI50 [55]: > 100 µM
- TGI [55]: > 100 µM
- GI50 [56]: > 100 µM
- TGI [56]: > 100 µM
- GI50 [57]: > 100 µM
- TGI [57]: > 100 µM
- GI50 [58]: > 100 µM
- TGI [58]: > 100 µM
- GI50 [59]: > 100 µM
- TGI [59]: > 100 µM
